Counter-ions that a name gives are not always drawn.
Target: T1, human NTCP (Homo sapiens, UniProt Q14973)
T1 sequence (Q14973 1-349): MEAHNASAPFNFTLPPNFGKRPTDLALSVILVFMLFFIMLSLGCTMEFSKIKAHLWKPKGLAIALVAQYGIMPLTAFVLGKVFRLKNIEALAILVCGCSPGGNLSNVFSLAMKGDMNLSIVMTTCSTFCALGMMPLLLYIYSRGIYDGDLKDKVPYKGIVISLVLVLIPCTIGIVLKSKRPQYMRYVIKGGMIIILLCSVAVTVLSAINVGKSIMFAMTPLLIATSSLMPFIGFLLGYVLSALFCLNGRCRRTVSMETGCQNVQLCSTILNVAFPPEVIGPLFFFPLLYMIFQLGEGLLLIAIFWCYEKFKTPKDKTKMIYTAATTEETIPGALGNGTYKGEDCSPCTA
Experiment: Screening fluorescent competitive Myrcludex B-FITC binding assay (96-well, 10 µM drug)
Conditions: for B-score binding assay / %NTCP binding: screening Myrcludex B-FITC binding, 10 µM drug; for %NTCP binding: Prestwick library; for remaining activity at 10 µM: 0.5 h, read-out: %NTCP binding, screening Myrcludex B-FITC binding, 10 µM drug, Prestwick library

SMILES	B-score binding assay	further results
CC1Cc2ccccc2N1NC(=O)c1ccc(Cl)c(S(N)(=O)=O)c1 (centres unmarked) [Indapamide]	-0.039	–
C=C1/C(=C\C=C2/CCC[C@]3(C)[C@@H]([C@H](C)CCCC(C)C)CC[C@@H]23)C[C@@H](O)C[C@@H]1O [Alfacalcidol]	0.028	–
COc1cc(C(=O)OCCCN2CCCN(CCCOC(=O)c3cc(OC)c(OC)c(OC)c3)CC2)cc(OC)c1OC.Cl.Cl [Dilazep dihydrochloride]	3.166	%NTCP binding: 58.9014%
C=CC[C@]1(O)CC[C@H]2[C@@H]3CCC4=CC(=O)CCC4=C3C=C[C@@]21C [Altrenogest]	-0.328	remaining activity at 10 µM: 84.6%
Oc1cc(Cl)ccc1Oc1ccc(Cl)cc1Cl [Triclosan]	-1.615	–
C[C@H](CCC(=O)O)[C@H]1CC[C@H]2[C@@H]3CC[C@@H]4C[C@H](O)CC[C@]4(C)[C@H]3CC[C@]12C [Lithocholic acid]	-3.25	–
CCCCC1=NC2(CCCC2)C(=O)N1Cc1ccc(-c2ccccc2-c2nnn[nH]2)cc1 [irbesartan, reference compound]	0.33	–
Cc1ccnc2c1NC(=O)c1cccnc1N2C1CC1 [Nevirapine]	2.426	–
CN1CCN(C(c2ccccc2)c2ccc(Cl)cc2)CC1 (centres unmarked) [Chlorcyclizine hydrochloride]	–	B-score binding assay (B-score): 2.035
NS(=O)(=O)c1cc(C(=O)O)cc(N2CCCC2)c1Oc1ccccc1 [Piretanide]	0.068	–
CCN(CC)CCNC(=O)c1cc(Cl)c(N)cc1OC.Cl [Metoclopramide monohydrochloride]	–	%NTCP binding: 57.0233%; B-score binding assay (B-score): 3.653
CCCCOc1ccc(CC(=O)NO)cc1 [Bufexamac]	-1.159	–
CCOC(=O)NNc1nncc2ccccc12 [Todralazine hydrochloride]	-0.535	–
CC1(C)S[C@@H]2[C@H](NC(=O)[C@H](N)c3ccccc3)C(=O)N2[C@H]1C(=O)O [Ampicillin trihydrate]	-1.914	–
C#CCN(C)[C@H](C)Cc1ccccc1 [Selegiline hydrochloride]	0.539	remaining activity at 10 µM: 78%
Nc1ccc(S(=O)(=O)NC(=O)c2ccccc2)cc1 [Sulfabenzamide]	-0.412	–
CN(C(=O)C(Cl)Cl)c1ccc(OC(=O)c2ccco2)cc1 [Diloxanide furoate]	–	B-score binding assay (B-score): 1.597
O=[N+]([O-])O[C@@H]1CO[C@H]2[C@@H]1OC[C@@H]2O [Isosorbide mononitrate]	-1.68	–
CN(C)C(=O)Oc1cc(OC(=O)N(C)C)cc(C(O)CNC(C)(C)C)c1.Cl (centres unmarked) [Bambuterol hydrochloride]	-0.174	%NTCP binding: 58.7751%
[H]/N=C(/N)N/C(=N/[H])NCCc1ccccc1 [Phenformin hydrochloride]	-3.595	–
Cc1cccc(Nc2ccncc2S(=O)(=O)NC(=O)NC(C)C)c1 [Torsemide]	0.549	–
CC(C)C[C@H](NC(=O)[C@@H](O)[C@H](N)Cc1ccccc1)C(=O)O [Ubenimex]	-0.274	–
O.O=C1C(O)=C(O)C(=O)C(O)=C1O [Tetrahydroxy-1,4-quinone hydrate]	-0.041	%NTCP binding: 102.531%

SMILES	B-score binding assay	further results
CN/C(=N/CCSCc1nc[nH]c1C)NC#N [Cimetidine]	-1.404	–
CC(COc1ccccc1)N(CCCl)Cc1ccccc1 (centres unmarked) [Phenoxybenzamine hydrochloride]	-2.19	–
CN1CCN(c2c(F)cc3c(=O)c(C(=O)O)cn(CCF)c3c2F)CC1 [Fleroxacin]	–	B-score binding assay (B-score): 1.459
CCOC(=O)c1ccc(N)cc1 [Benzocaine]	-1.908	–
COc1ccc(OC)c(C(O)C(C)N)c1 (centres unmarked) [Methoxamine hydrochloride]	3.085	remaining activity at 10 µM: 87.3%
CO/N=C(\C(=O)N[C@@H]1C(=O)N2C(C(=O)OC(C)OC(C)=O)=C(COC(N)=O)CS[C@H]12)c1ccco1 (some centres unmarked) [Cefuroxime axetil]	0.39	–
CC(C)NC[C@H](O)COc1cccc2ccccc12 [(S)-propranolol hydrochloride]	0.068	–
COc1cnc(NS(=O)(=O)c2ccc(N)cc2)nc1 [Sulfameter]	0.699	–
CCc1nc(N)nc(N)c1-c1ccc(Cl)cc1 [Pyrimethamine]	–	B-score binding assay (B-score): 1.264
CCCCc1cc2ccccc2c(OCCN(C)C)n1 [Dimethisoquin hydrochloride]	-1.655	–
C=CCOC(Cn1ccnc1)c1ccc(Cl)cc1Cl (centres unmarked) [Enilconazole]	0.029	remaining activity at 10 µM: 108%
COc1cc(C)nc(-n2nc(C)cc2OC)n1 [Epirizole]	-3	–
C=C1C[C@@H]2[C@H](CC[C@]3(C)C(=O)CC[C@@H]23)[C@@]2(C)C=CC(=O)C=C12 [Exemestane]	0.659	remaining activity at 10 µM: 84.2%
Cn1cnc2c1c(=O)[nH]c(=O)n2C [Theobromine]	0.508	–
Cc1ncc([N+](=O)[O-])n1CC(C)O (centres unmarked) [Secnidazole]	0.076	–
CCOC(=O)C1=C(C)NC(C)=C(C(=O)OC)C1c1cccc(Cl)c1Cl (centres unmarked) [Felodipine]	-1.258	–
c1ccc(C2CN3CCSC3=N2)cc1 (centres unmarked) [Tetramisole hydrochloride]	-0.001	–
CC(=O)Nc1ccc(OCC(O)CNC(C)C)cc1 (centres unmarked) [Practolol]	-0.221	–
C[C@@H]1C[C@H]2[C@@H]3C[C@H](F)C4=CC(=O)C=C[C@]4(C)[C@@]3(F)[C@@H](O)C[C@]2(C)[C@@]1(O)C(=O)COC(=O)C(C)(C)C [Flumethasone pivalate]	-0.33	remaining activity at 10 µM: 32.5%
CCCCC(CC)CNC(=N)NC(=N)NCCCCCCNC(=N)NC(=N)NCC(CC)CCCC (centres unmarked) [Alexidine dihydrochloride]	-6.549	–
CCCCCN(C)CCC(O)(P(=O)([O-])O)P(=O)(O)O.[Na+] [Ibandronate sodium]	-2.926	–
O=C1NCN(c2ccccc2)C12CCN(CCCC(c1ccc(F)cc1)c1ccc(F)cc1)CC2 [Fluspirilen]	-0.65	%NTCP binding: 115.162%
Cc1c(O)cccc1C(=O)N[C@@H](CSc1ccccc1)[C@H](O)CN1C[C@H]2CCCC[C@H]2C[C@H]1C(=O)NC(C)(C)C [Nelfinavir mesylate]	-6.406	–

SMILES	B-score binding assay	further results
Nc1nc2c(ncn2CCC(CO)CO)c(=O)[nH]1 [Penciclovir]	1.956	–
CC(=O)N(CC(C)C(=O)O)c1c(I)cc(I)c(N)c1I (centres unmarked) [Iocetamic acid]	-1.34	–
C[C@@H]1CCC[C@H](C)N1NC(=O)c1ccc(Cl)c(S(N)(=O)=O)c1 [Clopamide]	-2.187	–
COc1ccc(-c2cc(=O)c3c(O)cc(O[C@@H]4O[C@H](CO[C@@H]5O[C@@H](C)[C@H](O)[C@@H](O)[C@H]5O)[C@@H](O)[C@H](O)[C@H]4O)cc3o2)cc1O [Diosmin]	-0.897	–
CC#C[C@]1(O)CC[C@H]2[C@@H]3CCC4=CC(=O)CCC4=C3[C@@H](c3ccc(N(C)C)cc3)C[C@@]21C [Mifepristone]	-0.121	–
CC(=O)OCC(=O)[C@@]12OC(C)(C)O[C@@H]1C[C@H]1[C@@H]3C[C@H](F)C4=CC(=O)C=C[C@]4(C)[C@@]3(F)[C@@H](O)C[C@@]12C [Fluocinonide]	-0.282	–
CCC1(C)CC(=O)NC(=O)C1 [Bemegride]	-2.269	–
Cc1cccc(Nc2ccccc2C(=O)O)c1C [Mefenamic acid]	-0.995	–
NCCc1c[nH]c2ccc(O)cc12 [Serotonin hydrochloride]	-8.308	–
CC1=C(/C=C/C(C)=C/C=C/C(C)=C/C(=O)O)C(C)(C)CCC1 [Retinoic acid]	-2.311	–
CC[N+](C)(CC)CCOC(=O)C1c2ccccc2Oc2ccccc21 [Methantheline bromide]	-0.235	–
C=C1CC[C@@]2(O)[C@H]3Cc4ccc(O)c5c4[C@@]2(CCN3CC2CC2)[C@H]1O5 [Nalmefene hydrochloride]	-0.048	remaining activity at 10 µM: 79.8%
C[C@H](Cc1cc2c(c(C(N)=O)c1)N(CCCO)CC2)NCCOc1ccccc1OCC(F)(F)F [Silodosin]	-0.989	–
CC[C@H](c1ccc(O)cc1)[C@@H](CC)c1ccc(O)cc1 [Hexestrol]	-1.833	–
CC(=O)OCC(=O)[C@@]1(O)[C@H](C)C[C@H]2[C@@H]3CCC4=CC(=O)C=C[C@]4(C)[C@@]3(F)[C@@H](O)C[C@@]21C [Dexamethasone acetate]	-0.201	–
CCCCNc1c(C(=O)OCC)c(C)nc2c1cnn2CC.Cl [Tracazolate hydrochloride]	-0.372	–
CN(C)C(=O)Oc1ccc[n+](C)c1.[I-] [Pyridostigmine iodide]	–	%NTCP binding: 92.5819%; B-score binding assay (B-score): 3.334
NC(=O)N/N=C/c1ccc([N+](=O)[O-])o1 [Nitrofural]	-0.433	–
CN[C@@H]1[C@H](O[C@H]2[C@H](O[C@H]3[C@H](O)[C@@H](O)[C@H](NC(=N)N)[C@@H](O)[C@@H]3NC(=N)N)O[C@@H](C)[C@]2(O)CO)O[C@@H](CO)[C@H](O)[C@H]1O [Dihydrostreptomycin sulfate]	-1.128	–
Cc1cc(C(C#N)c2ccc(Cl)cc2)c(Cl)cc1NC(=O)c1cc(I)cc(I)c1O (centres unmarked) [Closantel]	-1.965	–
NC(=O)NC1NC(=O)NC1=O (centres unmarked) [Allantoin]	-1.26	–

— PMC5681660, “Reduced hepatitis B and D viral entry using clinically applied drugs as novel inhibitors of the bile acid transporter NTCP” (Scientific Reports, 2017)
